Target: recombinant human ACC2 (Homo sapiens (Human), UniProt O00763)
Assay: Measurement of inhibitory activity on human ACC2 (MALDI-TOF MS, conversion of acetyl CoA to malonyl CoA)
Type: biochemical
Settings: recombinant human ACC2, room temperature, 1 to 3 hours
Text: After a cDNA encoding human ACC2 (27 amino acid residue to 2458 amino acid residues from the N-terminus) was cloned from human kidney cDNA library (Clontech), human ACC2 gene containing His-tag sequence at 5′ terminus was inserted into pFastBac1 (Invitrogen). Recombinant baculovirus was generated using Bac-to-Bac baculovirus expression system (Invitrogen) according to the manufacturer's protocol. To express human ACC2, Sf-9 cells were infected with recombinant baculovirus. After infected cells were disrupted, the filtrated lysate was subjected to Ni-affinity chromatography and anion-exchange chromatography. The fractions containing human ACC2 protein were pooled as recombinant human ACC2 solution.
Recombinant human ACC1 and recombinant human ACC2, which were prepared by the method mentioned above, were preincubated with assay buffer solution (50 mM HEPES-KOH (pH 7.4), 10 mM magnesium chloride, 6-10 mM potassium citrate, 4 mM reduced form of glutathione, 1.5 mg/ml bovine serum albumin) for one hour. […] Then, after the samples were cocrystallized with CHCA (α-cyano-4-hydroxy cinnamic acid) matrices on MALDI target plate, by using the matrix assist laser […] time-of-flight mass spectrometer (MALDI-TOF MS), samples were measured in reflector negative mode. […]

The chains behind the UniProt entries cited, without tags or fusion partners. Residues count along the entry.
UniProt O00763, 27-2458: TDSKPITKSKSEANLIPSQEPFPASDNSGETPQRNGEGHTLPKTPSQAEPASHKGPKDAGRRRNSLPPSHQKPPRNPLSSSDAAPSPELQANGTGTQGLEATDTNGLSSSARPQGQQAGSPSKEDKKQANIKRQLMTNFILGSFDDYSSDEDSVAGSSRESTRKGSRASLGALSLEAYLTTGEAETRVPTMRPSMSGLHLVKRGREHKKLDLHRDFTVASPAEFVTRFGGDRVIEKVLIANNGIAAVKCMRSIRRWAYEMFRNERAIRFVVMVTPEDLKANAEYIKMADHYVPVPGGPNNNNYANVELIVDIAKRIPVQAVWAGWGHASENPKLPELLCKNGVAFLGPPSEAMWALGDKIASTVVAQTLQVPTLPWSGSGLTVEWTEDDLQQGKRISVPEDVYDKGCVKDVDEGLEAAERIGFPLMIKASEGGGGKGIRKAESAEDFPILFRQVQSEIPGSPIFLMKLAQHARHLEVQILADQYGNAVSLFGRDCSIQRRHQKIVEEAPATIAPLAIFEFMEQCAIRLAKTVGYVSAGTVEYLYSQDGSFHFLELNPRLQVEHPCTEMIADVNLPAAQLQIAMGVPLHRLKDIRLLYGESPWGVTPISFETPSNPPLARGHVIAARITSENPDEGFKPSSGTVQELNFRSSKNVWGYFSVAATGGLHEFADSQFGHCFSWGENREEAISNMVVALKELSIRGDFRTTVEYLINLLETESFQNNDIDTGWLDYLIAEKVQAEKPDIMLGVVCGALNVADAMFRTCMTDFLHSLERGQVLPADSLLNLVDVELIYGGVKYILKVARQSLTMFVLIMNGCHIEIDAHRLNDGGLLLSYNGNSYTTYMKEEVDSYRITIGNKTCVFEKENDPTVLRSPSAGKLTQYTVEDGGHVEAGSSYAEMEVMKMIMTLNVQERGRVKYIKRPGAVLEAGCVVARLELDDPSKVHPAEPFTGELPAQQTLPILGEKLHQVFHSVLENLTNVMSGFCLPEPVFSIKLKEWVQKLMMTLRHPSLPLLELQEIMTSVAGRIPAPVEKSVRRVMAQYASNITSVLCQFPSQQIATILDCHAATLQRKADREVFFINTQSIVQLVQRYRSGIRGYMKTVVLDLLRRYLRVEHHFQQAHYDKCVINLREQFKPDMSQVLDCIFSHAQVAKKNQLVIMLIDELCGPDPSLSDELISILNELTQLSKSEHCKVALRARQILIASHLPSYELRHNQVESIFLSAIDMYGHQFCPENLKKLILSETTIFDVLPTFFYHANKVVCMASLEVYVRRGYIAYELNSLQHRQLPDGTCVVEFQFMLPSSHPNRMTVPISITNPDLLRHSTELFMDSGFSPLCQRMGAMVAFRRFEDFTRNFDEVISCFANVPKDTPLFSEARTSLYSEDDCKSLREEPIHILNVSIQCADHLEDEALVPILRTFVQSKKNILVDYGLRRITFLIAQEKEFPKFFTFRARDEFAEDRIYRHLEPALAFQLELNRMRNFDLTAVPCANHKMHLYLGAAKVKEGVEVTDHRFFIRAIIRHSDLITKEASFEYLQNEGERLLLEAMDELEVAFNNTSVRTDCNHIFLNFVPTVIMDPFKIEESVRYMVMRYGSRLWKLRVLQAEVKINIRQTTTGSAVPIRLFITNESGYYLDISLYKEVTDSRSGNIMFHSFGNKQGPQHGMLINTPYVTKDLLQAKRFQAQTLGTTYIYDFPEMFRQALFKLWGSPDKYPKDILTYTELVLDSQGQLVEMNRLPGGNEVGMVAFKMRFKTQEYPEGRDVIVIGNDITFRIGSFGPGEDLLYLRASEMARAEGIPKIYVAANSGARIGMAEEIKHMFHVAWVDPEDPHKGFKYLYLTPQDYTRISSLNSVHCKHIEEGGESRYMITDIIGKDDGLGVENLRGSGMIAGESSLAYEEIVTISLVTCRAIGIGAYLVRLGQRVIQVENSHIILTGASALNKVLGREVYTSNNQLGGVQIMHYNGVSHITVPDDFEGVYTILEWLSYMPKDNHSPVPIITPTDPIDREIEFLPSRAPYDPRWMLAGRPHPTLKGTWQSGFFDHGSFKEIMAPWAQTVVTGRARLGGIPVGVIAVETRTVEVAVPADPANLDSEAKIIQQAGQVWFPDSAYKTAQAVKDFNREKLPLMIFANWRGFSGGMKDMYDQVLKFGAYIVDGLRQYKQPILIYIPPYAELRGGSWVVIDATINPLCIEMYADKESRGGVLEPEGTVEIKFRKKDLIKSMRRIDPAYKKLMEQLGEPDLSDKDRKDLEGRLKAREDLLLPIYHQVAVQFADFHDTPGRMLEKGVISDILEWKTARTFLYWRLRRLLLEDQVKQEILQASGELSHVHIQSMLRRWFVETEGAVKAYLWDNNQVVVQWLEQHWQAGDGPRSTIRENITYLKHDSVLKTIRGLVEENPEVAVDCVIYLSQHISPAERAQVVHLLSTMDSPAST

SMILES | IC50 [nM]
CC(=O)N[C@@H](C)CO[C@H]1CC[C@H](Oc2nc3c(F)cc(OC4CCC4)cc3n2C)CC1 [Example I-194] | 5.1
CC(=O)N[C@@H](C)CO[C@H]1CC[C@H](Oc2nc3c(Cl)cc(OC4CC4)cc3n2C)CC1 [Example I-200] | 6.6

— patent publication US10233156B2, “9-membered fused ring derivative” (Shionogi & Co., Ltd., priority 2015, dated 2019)
